Test results published in PubChem BioAssay AID602387 (Sanford-Burnham Center for Chemical Genomics, 2012).
This is a selection; strong and weak results do not stand in their true shares. Activity calls are given as the source filed them.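 The calls were made as follows: active = activation of at least 30% at 10 µM; inactive = the rest.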

Test: spectral interference with molecular beacon fluorescence, confirmation, artefact control for DNMT1 inhibitor project, biochemical, fluorescent molecular beacon, single concentration (AID 602387);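 also: DNMT1 catalytic domain with a HinP1I cleavage step and a FAM/dabcyl DNA beacon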
Conditions: DNMT1 molecular beacon spectral interference counterscreen, fluorescence 485/520; at 10 µM; active compounds read high

Row | Structure (SMILES) | activation (fluorescence interference)
1 | Nc1cccc2c([As](=O)(O)O)cccc12 | inactive: -2.14%
2 | Nc1cccc2ccc([As](=O)(O)O)cc12 | inactive: 0.84%
